# Results reported in PubChem BioAssay AID1671194 (National Center for Advancing Translational Sciences (NCATS), 2021).
# The list shows a part of the results, in another mix than the full data. Records with an inconclusive call do not appear. The source made the active and inactive calls. Calls follow the shape of the dose curve; as a rule, active = well fitted inhibition curve with a large enough effect; inconclusive = small, poorly fitted or top-dose-only effect; inactive = no such curve, though single readings can be large or run the other way.
# Test: Primary qHTS assay for inhibitors of alpha-synuclein gene (SNCA) expression;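 also: plate controls were DMSO cells for no effect and cell-free wells for full effect; nearly all actives have a fitted effect of over 45% in size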
# Conditions: HEK-293 SNCA-luciferase knock-in, luminescence, 24 h
# From the text: Assay Submitter (PI): Daniel R. Scoles Ph.D.
# Department of Neurology, University of Utah, Salt Lake City, Utah
# Accumulation of alpha-synuclein is a main underlying pathological feature of Parkinson's disease (PD) and alpha-synucleinopathies, for which lowering expression of the alpha-synuclein gene (SNCA) is a potential therapeutic avenue. Using a cell-based luciferase reporter of SNCA expression we performed a quantitative high throughput screen (qHTS) of 155,885 compounds in dose response. The screening assay was generated using genome editing to insert the luciferase gene downstream and in frame of the SNCA gene in HEK-293 cells (1). A viability counterscreen using GF-AFC was used to eliminate cytotoxic and false positive compounds. After in silico analysis (clustering, removal of frequent hitter nuisance chemotypes), inhibitor compounds from the primary screen were selected for follow up and re-tested at 11-doses in the SNCA-luc cells (luciferase and GF-AFC confirmation), and in CMV-luc expressing cell line to flag general transcriptional repressors.
# Described herein are the results of the primary screen for SNCA inhibitors; decrease in luciferase signal (inhibition of the SNCA gene expression) is the desired output for this assay.
# 1. Dansithong, W., Paul, S., Scoles, D. R., Pulst, S. M., and Huynh, D. P. (2015) Generation of SNCA Cell Models Using Zinc Finger Nuclease (ZFN) Technology for Efficient High-Throughput Drug Screening. PLoS ONE 10, e0136930.
# SEQUENCE No. (e.g., 1, 2, 3, etc.); […] (e.g., Cells, Incubation, Reagent, etc.); VALUE; DESCRIPTION
# 1; Cells; 4 uL; Dispense 1500 HEK-293-SNCA-luc cells/well into Greiner 1536-well white / solid bottom tissue culture treated plate. The plate was covered with metal lids with gas-exchange holes.
# 2; Incubate; 24 hours; Incubate at 37C, 5% CO2, 95% RH.
# 3; Compounds; 23 nL; Compounds and controls were transferred via a Kalypsys Pin Tool (Wako USA) equipped with a 1536-slotted pin array. The plate was covered with metal lids with gas-exchange holes.
# 4; Incubate; 24 hours; Incubate at 37C, 5% CO2, 95% RH.
# 5; Dispense; 1 uL; Dispense Gly-Phe-7-amino-4-trifluoromethylcoumarin (GF-AFC, prepared at 125 uM in PBS) was added. The plate was covered with metal lids with gas-exchange holes.
# 6; Incubate; 30 min; Incubate at 37C, 5% CO2.
# 7; Detector; Fluorescence; Measure fluorescence with ViewLux microplate reader (PerkinElmer) equipped with 405/10 excitation and 540/25 emission filters.
# 8; Dispense; 3 uL; Dispense ONE-Glo ([…]) lucifase detection reagent was added to each well. […]
# 10; Detector; Luminescence; Measure luminescence with ViewLux microplate reader (PerkinElmer) equipped with clear filters. […]
# 10; Signals were analyzed, and dose-response curves were fit using the Hill equation. […]
Compound,"activity change, negative = inhibition (at 57.2 µM (top of the series))","activity change, negative = inhibition (at 25.6 µM (top of the series))"
CCC(=O)N(c1ccccc1)C1(COC)CCN(CCc2cccs2)CC1,inactive: -25.5%,
CCC(=O)N(c1ccccc1)C1(COC)CCN(CCn2nnn(CC)c2=O)CC1,inactive: 51.8%,
CN(CCCl)CCCl,inactive: -18.6%,inactive: 3.61%
